# Source: PubChem BioAssay AID1645882 (National Center for Advancing Translational Sciences (NCATS), 2021)
# Sequences of proteins named here, by UniProt entry; tags and fusion partners are left off. A change or cut given only in a name is not applied to a line headed by its entry.
# UniProt O95398: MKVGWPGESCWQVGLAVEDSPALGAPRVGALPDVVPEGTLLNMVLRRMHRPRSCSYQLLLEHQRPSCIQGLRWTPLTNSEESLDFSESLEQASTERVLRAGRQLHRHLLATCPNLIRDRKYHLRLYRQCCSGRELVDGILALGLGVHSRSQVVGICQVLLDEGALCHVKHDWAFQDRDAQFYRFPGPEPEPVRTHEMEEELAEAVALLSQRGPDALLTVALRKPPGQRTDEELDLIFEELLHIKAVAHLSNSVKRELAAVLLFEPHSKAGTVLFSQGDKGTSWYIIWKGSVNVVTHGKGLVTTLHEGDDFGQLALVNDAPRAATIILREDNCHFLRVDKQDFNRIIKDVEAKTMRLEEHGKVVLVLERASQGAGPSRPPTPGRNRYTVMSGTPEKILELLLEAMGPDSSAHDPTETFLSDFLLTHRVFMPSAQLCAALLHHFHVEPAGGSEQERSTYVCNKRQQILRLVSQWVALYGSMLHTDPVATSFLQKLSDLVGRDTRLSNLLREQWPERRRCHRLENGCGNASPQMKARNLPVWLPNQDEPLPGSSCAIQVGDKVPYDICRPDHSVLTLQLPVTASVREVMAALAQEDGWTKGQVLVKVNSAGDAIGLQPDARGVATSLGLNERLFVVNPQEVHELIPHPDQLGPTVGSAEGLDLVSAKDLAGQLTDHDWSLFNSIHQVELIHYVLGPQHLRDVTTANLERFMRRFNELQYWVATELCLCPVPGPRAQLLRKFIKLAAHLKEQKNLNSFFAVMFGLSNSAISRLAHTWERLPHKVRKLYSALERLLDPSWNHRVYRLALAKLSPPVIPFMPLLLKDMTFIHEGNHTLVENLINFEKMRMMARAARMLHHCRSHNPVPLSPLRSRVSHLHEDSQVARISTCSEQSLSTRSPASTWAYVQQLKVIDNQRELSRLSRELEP
# The entries are a selection whose mix differs from that of the whole data set. Results filed as inconclusive are left out. Activity calls are given as the source filed them. Calls follow the shape of the dose curve; as a rule, active = well fitted inhibition curve with a large enough effect; inconclusive = small, poorly fitted or top-dose-only effect; inactive = no such curve, though single readings can be large or run the other way.
# Target: Rap guanine nucleotide exchange factor 3 (Homo sapiens) (UniProt O95398)
# Assay: Validation qHTS for antagonist of cAMP-regulated guanine nucleotide exchange factor 3 (EPAC1); also: nearly all actives have a fitted effect of over 75% in size
# Details: EPAC1 Rap1B-BODIPY-GDP exchange, fluorescence
# Source text: Assay Provider (PI): Xiaodong Cheng Ph.D.
# The University of Texas Medical Branch, […], TX
# In multi-cellular eukaryotic organisms, the effects of cAMP are transduced by two ubiquitously-expressed intracellular cAMP receptors, the classic protein kinase A/cAMP-dependent protein kinase (PKA/cAPK) and the more recently discovered exchange protein directly activated by cAMP/cAMP-regulated guanine nucleotide exchange factor (EPAC/cAMP-GEF). Both PKA and EPAC are ubiquitously expressed in all tissues, and an increase in intracellular cAMP levels will lead to the activation of both PKA and EPAC. […]
# This qHTS will be used to screen the Molecular Libraries Small Molecule Repository (MLSMR) as a concentration-titration series using the NCGC unique quantitative screening (qHTS) platform to find activators for EPAC1. […] Activators are identified by monitoring the change in fluorescence signal as the exchanged free BODIPY-GDP has a reduced fluorescence compared to Rap1-bound BODIPY-GDP. […]
# Briefly, three uL of reagents (100 nM EPAC1, 250 nM RAP1B-BODIPY-GDP, 50 uM GDP) were dispensed into a 1536-well Greiner black solid-bottom medium binding assay plate. […] The assay plates were read at 5 minute intervals for 30 minutes in the ViewLux plate reader using 480nm excitation and 540nm emission filters. […]
# Potency is read from the fitted curve at half-maximal effect.
row,Structure (SMILES),Potency
1,CCC(=O)O[C@H]1[C@H](O[C@@H]2[C@@H](C)[C@H](O[C@H]3C[C@@](C)(OC)[C@@H](O)[C@H](C)O3)[C@@H](C)C(=O)O[C@H](CC)[C@@](C)(O)[C@H](O)[C@@H](C)C(=O)[C@H](C)C[C@@]2(C)O)O[C@H](C)C[C@@H]1N(C)C,active: 44.7 µM
2,C=C1CCC(O)C/C1=C\C=C1/CCCC2(C)C1CCC2C(C)CCCC(C)C (configuration not stated),active: 44.7 µM
